From US9816075B2, “Compounds with modifying activity enhanced under hypoxic conditions” (Board of Regents, The University of Texas System, priority 2005, dated 2017)

Experiment: Animal toxicity screen / MTD by intraperitoneal injection
Conditions: mice, a = maximum dose due to poor solubility, b = acutely toxic with a single animal at 0.2 mg in 200 μL (about 6.0 mg/kg)

With “[Ru2(phen)4tatpq]^4+ [[Ru2(phen)4(tatpq)]^4+]” as the substance, how does the MTD read?
The MTD was 17 mg/kg.

For “[Ru2(phen)4tatpp]^4+ [[Ru2(phen)4(tatpp)]^4+]”, which MTD is on record?
Its MTD is 67 mg/kg.
